Experimental data reported in publication PMC5762686, “Structural ensemble-based docking simulation and biophysical studies discovered new inhibitors of Hsp90 N-terminal domain” (Scientific Reports, 2018).
Values joined by “and” are separate entries in the source; they are usually repeats but may differ in a detail not shown here. Identical values can stand only once.

By UniProt entry, the sequences of proteins in these tests, tags left out. Residues count along the entry.
UniProt P07900, 1-235 limits assumed: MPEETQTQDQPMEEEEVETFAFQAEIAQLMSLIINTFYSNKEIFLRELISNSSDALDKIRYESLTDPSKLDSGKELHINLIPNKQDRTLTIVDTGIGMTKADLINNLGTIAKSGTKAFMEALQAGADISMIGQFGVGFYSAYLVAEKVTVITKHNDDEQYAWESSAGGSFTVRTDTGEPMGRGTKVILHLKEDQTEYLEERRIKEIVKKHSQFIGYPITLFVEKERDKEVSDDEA

How the values were obtained:
[1] = target: Hsp90 N-terminal domain (Hsp90N, residues 1–235 of human Hsp90α) (Homo sapiens, UniProt P07900); experiment: 2D [1H,15N] HSQC NMR titration with line-shape analysis (TITAN) for Kd; type: binding; conditions: for Kd: 2D NMR line-shape analysis, 25 °C, pH 7.0; for LE (ligand efficiency): calculated as −1.37 × (Log10Kd)/HA
[2] = target: Hsp90N (Homo sapiens, UniProt P07900); experiment: Differential scanning fluorimetry (DSF), change of Tm; type: binding; conditions: apo Tm 44.4 °C, Hsp90N 2 μM, inhibitor 200 μM
[3] = system: MCF7 cells; experiment: Cell growth inhibition, MTT assay; type: cell-based; conditions: MCF7, 10 nM to 10 μM, 48 h

Structure (SMILES)	Kd [1]	LE (ligand efficiency) [1]	elevated Tm values [2] [°C]	Cell growth inhibition [3]
COc1ccc(-c2n[nH]cc2-c2ccc(F)cc2)c(O)c1	33.1 µM and 33 µM	0.29	3.5	–
Cc1[nH]nc(-c2ccc(O)cc2O)c1Oc1ccccc1F	0.1 µM	0.44	8.9	significantly inhibitory
CCc1cc(-c2n[nH]cc2-c2nc(C)cs2)c(O)cc1OC	0.35 µM	0.40	7.3	significantly inhibitory
NC(=O)CSc1nnc(-c2cc(Br)ccc2O)n1-c1ccccc1	5 µM	0.30	6.5	–
